Bioassay records: PubChem, Broad Institute
E-sel inducer – induces E-selectin expression in human endothelial cells | HUVEC E-selectin immunofluorescence imaging; normalized: neutral wells 0, TNF-alpha wells 100 | activation, % at 7.58 µM | 260,000 tested, 0.37% active;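 active = mean E-selectin-positive cell signal at least 10% of the positive control, reached in at least 60% of replicates, without over 20% cell loss; inconclusive = no rule given, readout overlaps actives, possibly toxicity-flagged; inactive = the rest, including those meeting only one limit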
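Assay system: HUVEC primary endothelial cells. Input: 3,000 HUVEC seeded per well. Doses: one compound dose added by pin transfer. Read-out basis: % PE-positive cells. Benchmarks: TNF-alpha high, DMSO low. Detection: immunofluorescence imaging. Buffer or medium: EGM-2, gelatin.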
PglD inh – blocks C. jejuni PglD acetyltransferase activity; purified PglD enzyme, DTNB colorimetric CoA detection; inhibition, % at 12.5 µM; 360,000 tested, 0.098% active; AID 602405; in the data active = inhibition above about 16%, passing the limit was not always enough; inconclusive = no clear call, values can overlap the other calls
PGC1a acetyl inh – lowers PGC1a acetylation signal in U2OS cells. AlphaScreen anti-acetyl-lysine; with virally co-expressed GCN5 acetyltransferase. inhibition, % at 15.6 µM. 350,000 tested, 0.17% active. AID 651687;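 active = every replicate shows inhibition of at least 40%; inconclusive = mean inhibition at least 40% but some replicate below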;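 note: 0% = neutral control wells and 100% = positive control wells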
esBAF inh – SWI/SNF esBAF complex inhibition; mouse ES cells, Bmi1-luciferase knock-in reporter, 24 h; 100% = twice the neutral-well signal; reporter increase, % at 12.5 µM; 350,000 tested, 2% active; AID 602393; in the data active = activation above about 40%; inconclusive = no clear call, values can overlap the other calls;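 note: 0% = median of the plate's neutral control wells and 100% = double that signal; a rise in the Bmi1 reporter signal indicates esBAF inhibition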
C2C12 statin – suppression of simvastatin myotoxicity | C2C12 myotubes + simvastatin, ATP luminescence, 48 h; scaled: DMSO 0, geranylgeraniol control 100 | rescue of ATP level, % at 7.49 µM | 330,000 tested, 0.78% active;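 active = mean ATP rescue above about 67%, or every replicate alone reaching that limit, limit read from the data, passing the limit was not always enough; inconclusive = no clear call, values can overlap the other calls; inactive = mean under the limit and some replicate under it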;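 note: myotubes were challenged with 10 µM simvastatin during compound exposure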
Yeast UUG start – modulators of start codon recognition fidelity in yeast; AID 602363; hit rate 0.13% among 350,000; activity score, % at 18.7 µM; S. cerevisiae UUG-firefly luciferase reporter, luminescence/redox ratio;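 active = replicate mean at a twofold rise or more, about +100% in these data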;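 note: firefly luciferase made from a UUG start codon reports start codon fidelity; reporter light over untreated wells divided by growth signal over untreated wells; some hits fall short of that in this replicate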
* hit, by the source's call; ? = inconclusive; . = not tested or not shown; ! = repeats disagree. Only some compounds are listed: those with a hit (about 2.8% of all), similar ones and a draw of the others.

| no. | Structure | E-sel inducer | PglD inh | PGC1a acetyl inh | esBAF inh | C2C12 statin | Yeast UUG start |
| --- | --- | --- | --- | --- | --- | --- | --- |
| 1 | Cc1cccc(Nc2nc(-c3cccs3)cs2)n1 | . | 2 | -6 | 50* | 11 | -26 |
| 2 | Oc1ccc(-c2csc(Nc3ccccn3)n2)c(O)c1 | 2 | -7 | 9 | 80* | -1 | -18 |
| 3 | Nc1ccc(Nc2nc(-c3cccs3)cs2)cc1 | 0 | . | 1 | . | . | . |
| 4 | Cc1cccnc1Nc1nc(-c2ccc(O)cc2O)cs1 | . | -5 | -18 | 31 | . | -17 |
| 5 | Cc1cccc(Nc2nc(-c3ccc(F)cc3)cs2)n1 | . | -2 | -5 | ? | 5 | -23 |
| 6 | c1csc(-c2csc(-c3cccs3)n2)c1 | . | 0 | . | 53* | . | -15 |
| 7 | c1ccc(Nc2nc(-c3cccs3)cs2)nc1 | . | -1 | -2 | -33 | 148* | -42 |
| 8 | c1cncc(-c2nc(-c3cccs3)cs2)c1 | . | 2 | 33 | 22 | . | -22 |
| 9 | COc1cccc(-c2ccc3n(c2=O)C[C@@H]2[C@@H](CO)[C@H](C(=O)N4CCCCC4)N(C)[C@H]32)c1 | 0 | -3 | -1 | 2 | -15 | . |
| 10 | Cc1noc(C)c1NC(=O)Nc1cccc2c1O[C@H](CN(C)Cc1ccc(-c3ccccc3)cc1)[C@@H](C)CN([C@H](C)CO)C2=O | 0 | 0 | -9 | 7 | 78* | 15 |
| 11 | C[C@H](CO)N1C[C@H](C)[C@@H](CN(C)Cc2ccc(-c3ccccc3)cc2)Oc2c(NC(=O)Nc3ccc4c(c3)OCO4)cccc2C1=O | 14 | 5 | -10 | 43*! | -21 | -2 |
| 12 | Cc1noc(C)c1NC(=O)Nc1cccc2c1O[C@@H](CN(C)Cc1ccc(C(F)(F)F)cc1)[C@H](C)CN([C@@H](C)CO)C2=O | 252* | 1 | -1 | -3 | -8 | 40 |
| 13 | C[C@H]1CN([C@@H](C)CO)C(=O)c2cccc(NC(=O)Nc3ccc4c(c3)OCO4)c2O[C@@H]1CN(C)Cc1ccc(-c2ccccc2)cc1 | -2 | -2 | -3 | 6 | . | 2 |
| 14 | C[C@H](CO)N1C[C@H](C)[C@H](CN(C)Cc2ccc(C(F)(F)F)cc2)Oc2c(NC(=O)Nc3cccc4ccccc34)cccc2C1=O | -8 | 10 | -13 | 9 | 81* | 7 |
| 15 | COc1ccc2c3c(n(C)c2c1)[C@H](CO)N(Cc1ccncc1)CC31CCN(C(=O)C2CCCCC2)CC1 | 0 | . | . | . | . | . |
| 16 | COc1ccc(-c2cnc3c(c2)C(=O)N([C@@H](C)CO)C[C@@H](C)[C@H](CN(C)Cc2ccccc2)O3)cc1 | 1 | 1 | 0 | -8 | 21 | 12 |
| 17 | C[C@H]1CN([C@@H](C)CO)C(=O)c2cc(C#Cc3cccnc3)cnc2O[C@H]1CN(C)Cc1ccccc1 | 0 | 0 | 2 | . | 26 | 6 |
| 18 | COc1cc(OC)c(CNS(=O)(=O)c2ccc(Br)cc2)c(OC)c1 | . | . | -11 | . | . | . |
| 19 | Fc1ccc(-c2nc3nc4ccccc4nc3n2Cc2ccco2)cc1 | . | 0 | -14 | 64* | 2 | -10 |
| 20 | C[C@@H]1CN([C@H](C)CO)C(=O)c2cc(NC(=O)CCCN(C)C)ccc2O[C@@H]1CN(C)Cc1ccc(Oc2ccccc2)cc1 | -12 | -1 | -8 | -3 | -26 | . |
| 21 | COc1ccc(CN(C)C[C@H]2Oc3ccc(NC(=O)CCCN(C)C)cc3C(=O)N([C@H](C)CO)C[C@H]2C)cc1 | 35* | . | -8 | . | . | . |
| 22 | Cc1ccc(S(=O)(=O)N(C)C[C@@H]2Oc3ccc(NC(=O)CCCN(C)C)cc3C(=O)N([C@H](C)CO)C[C@@H]2C)cc1 | -10 | -1 | -7 | -2 | -17 | -1 |
| 23 | Cc1ccc(S(=O)(=O)N(C)C[C@H]2Oc3ccc(NC(=O)CCCN(C)C)cc3C(=O)N([C@H](C)CO)C[C@H]2C)cc1 | 282* | 2 | 4 | -1 | 6 | -9 |
| 24 | COc1ccc(S(=O)(=O)N(C)C[C@@H]2Oc3ccc(NC(=O)CCCN(C)C)cc3C(=O)N([C@@H](C)CO)C[C@@H]2C)cc1 | 57* | -4 | -4 | -1 | 3 | 2 |
| 25 | CN(C)CC#Cc1ccc([C@H]2[C@H](CO)N3CCCCN(C(=O)CN(C)C)C[C@@H]23)cc1 | 0 | -5 | 1 | -14 | 7 | 20 |
| 26 | COCc1c(C(=O)OCC(=O)N2c3ccccc3CC2C)oc2ccccc12 (configuration not stated) | . | 5 | 13 | -1 | 4 | 5 |
| 27 | Cc1c(C(=O)N2c3ccccc3CC2C)oc2ccccc12 (configuration not stated) | 5 | -2 | . | 85* | -32 | -8 |

Rewritten in transposed form: two of the compounds above.
12	Cc1noc(C)c1NC(=O)Nc1cccc2c1O[C@@H](CN(C)Cc1ccc(C(F)(F)F)cc1)[C@H](C)CN([C@@H](C)CO)C2=O
13	C[C@H]1CN([C@@H](C)CO)C(=O)c2cccc(NC(=O)Nc3ccc4c(c3)OCO4)c2O[C@@H]1CN(C)Cc1ccc(-c2ccccc2)cc1

Screen / compound no. | 12 | 13
E-sel inducer | 252* | -2
PglD inh | 1 | -2
PGC1a acetyl inh | -1 | -3
esBAF inh | -3 | 6
C2C12 statin | -8 | .
Yeast UUG start | 40 | 2

In the list so far, these contain a CF3 group.
| no. | Structure | E-sel inducer | PglD inh | PGC1a acetyl inh | esBAF inh | C2C12 statin | Yeast UUG start |
| --- | --- | --- | --- | --- | --- | --- | --- |
| 12 | Cc1noc(C)c1NC(=O)Nc1cccc2c1O[C@@H](CN(C)Cc1ccc(C(F)(F)F)cc1)[C@H](C)CN([C@@H](C)CO)C2=O | 252* | 1 | -1 | -3 | -8 | 40 |
| 14 | C[C@H](CO)N1C[C@H](C)[C@H](CN(C)Cc2ccc(C(F)(F)F)cc2)Oc2c(NC(=O)Nc3cccc4ccccc34)cccc2C1=O | -8 | 10 | -13 | 9 | 81* | 7 |
